# Results taken from patent US20230331817A1 (The Regents of the University of California, priority 2020, published 2023).
# Key:
# human plasmin [1] = target: T1, human plasmin (Homo sapiens, UniProt P00747); assay: amidolytic inhibition of 3 nM plasmin, tight-binding equation
# human plasmin [2] = target: T1, human plasmin; assay: plasmin amidolytic inhibition, slow tight binding equation
# human plasmin [3] = target: T1, human plasmin; assay: residual amidolytic activity of 3 nM human plasmin after incubation with the inhibitor (chromogenic substrate); the axis is labelled KD1TM (nM), the legend gives the same range for BPTI
# human plasmin [4] = target: T1, human plasmin; assay: residual activity of 3 nM plasmin (percent fractional activity by the legend; the axis is labelled % Pm Inhibition), substrate S-2251 [A]
# factor XIa (human) = factor XIa (human) (UniProt P03951); assay: protease amidolytic inhibition, tight-binding equation
# human plasmin [5] = target: T1, human plasmin; assay: as above
# [6] = target: plasma kallikrein (human) (UniProt P03952); assay: as above
Ki (human plasmin [1]) [nM],Ki (human plasmin [2]),IC50 (read off the curve) (human plasmin [3]) [nM],IC50 (read off the curve) (human plasmin [4]) [nM],Ki (factor XIa (human)) [nM],Ki (human plasmin [5]) [nM],Ki [6] [nM],Substance
0.49,0.4 nM and 0.5 nM,2,2 to 3,326,0.5,,aprotinin (from UniProt P00974 36-93) (other; other documents disagree on this pair)
,,,,,,18,aprotinin (from UniProt P00974 36-93)

# “And” between values parts separate entries of the source, which are not always exact repeats. Equal entries are not always repeated.
